# Measured values published in article doi:10.1101/2025.02.18.638599v1 (biorxiv, 2025).
# Target: T1, AcrB (Escherichia coli, UniProt P31224)
# T1 sequence (P31224 1-1049): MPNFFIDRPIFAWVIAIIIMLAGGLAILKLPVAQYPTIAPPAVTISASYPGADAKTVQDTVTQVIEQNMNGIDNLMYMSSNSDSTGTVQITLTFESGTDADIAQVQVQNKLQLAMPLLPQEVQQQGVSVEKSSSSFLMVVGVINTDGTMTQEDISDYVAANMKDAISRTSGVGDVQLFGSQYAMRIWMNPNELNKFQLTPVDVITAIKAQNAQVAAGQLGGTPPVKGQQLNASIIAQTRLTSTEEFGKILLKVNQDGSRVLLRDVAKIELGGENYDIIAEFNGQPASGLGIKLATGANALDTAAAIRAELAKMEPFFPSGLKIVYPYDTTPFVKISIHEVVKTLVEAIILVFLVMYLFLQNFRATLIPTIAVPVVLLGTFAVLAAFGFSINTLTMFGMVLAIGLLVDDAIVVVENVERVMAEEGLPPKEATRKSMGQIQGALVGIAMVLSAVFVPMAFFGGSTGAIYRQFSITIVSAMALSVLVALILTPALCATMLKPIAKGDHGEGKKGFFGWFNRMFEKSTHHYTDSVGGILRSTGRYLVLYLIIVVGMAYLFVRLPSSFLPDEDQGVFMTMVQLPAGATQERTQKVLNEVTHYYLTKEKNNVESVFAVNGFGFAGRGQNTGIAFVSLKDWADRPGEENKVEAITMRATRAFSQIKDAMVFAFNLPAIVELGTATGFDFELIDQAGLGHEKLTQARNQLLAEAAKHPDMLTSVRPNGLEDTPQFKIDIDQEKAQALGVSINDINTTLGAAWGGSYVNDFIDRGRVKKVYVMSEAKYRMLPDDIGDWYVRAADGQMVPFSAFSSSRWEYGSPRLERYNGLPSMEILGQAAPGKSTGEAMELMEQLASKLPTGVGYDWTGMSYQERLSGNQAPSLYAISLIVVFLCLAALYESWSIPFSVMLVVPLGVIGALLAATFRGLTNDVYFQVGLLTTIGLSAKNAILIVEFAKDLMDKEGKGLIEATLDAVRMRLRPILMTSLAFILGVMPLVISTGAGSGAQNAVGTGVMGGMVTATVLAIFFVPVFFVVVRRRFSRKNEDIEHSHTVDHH
# Details: 20 nM AcrB, room temperature; low affinity
smiles,measurement,value
COc1c(N)ccc2c1CCCC(N1CCN(CCO)CC1)C2 (stereo not shown) [LP-115],KD,1.5 [95% CI: 0.80; 2.9] mM
